From ChEMBL document CHEMBL1131716, “Heterocycle-peptide hybrid compounds. Aminotriazole-containing agonists of the thrombin receptor (PAR-1)” (Bioorg Med Chem Lett, 1999)

Tests used:
[1] = target: T1, Proteinase-activated receptor 1 (Homo sapiens, UniProt P25116); assay: Inhibition of [3H]S-(p-F-Phe)-Har-L-Har-KY-NH2 binding to thrombin receptor (PAR-1) on membranes from CHRF cells; type: cell membranes
T1 sequence (P25116 whole entry): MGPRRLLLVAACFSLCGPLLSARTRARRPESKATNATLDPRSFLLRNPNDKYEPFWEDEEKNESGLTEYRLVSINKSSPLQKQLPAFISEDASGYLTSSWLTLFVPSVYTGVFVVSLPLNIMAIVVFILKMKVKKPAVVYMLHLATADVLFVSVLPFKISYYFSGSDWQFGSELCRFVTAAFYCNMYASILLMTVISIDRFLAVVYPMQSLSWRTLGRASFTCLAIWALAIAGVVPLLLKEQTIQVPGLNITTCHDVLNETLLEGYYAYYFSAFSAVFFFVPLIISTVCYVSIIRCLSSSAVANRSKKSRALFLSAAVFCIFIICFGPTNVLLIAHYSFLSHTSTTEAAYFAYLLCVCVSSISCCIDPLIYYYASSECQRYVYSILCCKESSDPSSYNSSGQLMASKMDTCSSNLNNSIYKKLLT

[2] = target: T1, Proteinase-activated receptor 1; assay: Inhibition of [3H]S-(p-F-Phe)-Har-L-Har-KY-NH2 binding to Thrombin receptor 1 (PAR-1) on membranes from CHRF cells; type: cell membranes

| IC50 [1] [µM] | IC50 [2] [µM] | Structure (SMILES) |
| --- | --- | --- |
| 3.1 | – | N=C(N)NCCC[C@H](NC(=O)[C@H](CC1CCCCC1)NC(=O)c1n[nH]c(NC(=O)/C(=C/c2ccccc2)c2ccccc2)n1)C(=O)N[C@@H](Cc1ccccc1)C(N)=O |
| 2.2 | – | N=C(N)NCCC[C@H](NC(=O)[C@H](CC1CCCCC1)NC(=O)c1n[nH]c(NC(=O)/C(F)=C/c2ccccc2)n1)C(=O)N[C@@H](Cc1ccccc1)C(N)=O |
| 6 | – | N=C(N)NCCC[C@H](NC(=O)[C@H](CC1CCCCC1)NC(=O)c1n[nH]c(N)n1)C(=O)N[C@@H](Cc1ccc(O)cc1)C(N)=O |
| – | 31 | N#Cc1ccc(/C=C/C(=O)Nc2nc(C(=O)N[C@@H](CC3CCCCC3)C(=O)N[C@@H](CCCNC(=N)N)C(=O)N[C@@H](Cc3ccccc3)C(N)=O)n[nH]2)cc1 |
| 4.2 | – | C/C(=C\c1ccccc1)C(=O)Nc1n[nH]c(C(=O)N[C@@H](CC2CCCCC2)C(=O)N[C@@H](CCCN=C(N)N)C(=O)N[C@@H](Cc2ccccc2)C(N)=O)n1 |
| 1.7 | – | N=C(N)NCCC[C@H](NC(=O)[C@H](CC1CCCCC1)NC(=O)c1cncc(Br)c1)C(=O)N[C@@H](Cc1ccccc1)C(N)=O |
